Assay results as given in ChEMBL document CHEMBL1138340, “Cannabilactones: a novel class of CB2 selective agonists with peripheral analgesic activity” (J Med Chem, 2007).

Sequences of proteins named here, by UniProt entry; tags and fusion partners are left off. A change or cut given only in a name is not applied to a line headed by its entry.
UniProt P47936: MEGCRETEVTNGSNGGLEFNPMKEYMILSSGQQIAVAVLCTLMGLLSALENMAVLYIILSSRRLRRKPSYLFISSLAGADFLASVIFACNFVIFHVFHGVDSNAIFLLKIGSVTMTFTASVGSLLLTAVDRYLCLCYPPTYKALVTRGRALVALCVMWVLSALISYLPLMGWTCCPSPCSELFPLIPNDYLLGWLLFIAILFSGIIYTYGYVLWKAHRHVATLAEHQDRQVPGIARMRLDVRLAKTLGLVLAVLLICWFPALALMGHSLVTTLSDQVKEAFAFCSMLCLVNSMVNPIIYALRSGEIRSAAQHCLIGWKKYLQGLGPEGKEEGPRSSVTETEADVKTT

How the values were obtained:
[1] = molecular target: Cannabinoid receptor 2 (Mus musculus) (UniProt P47936); assay: Agonist activity at CB2 receptor in mouse spleen membranes at 1 uM after 2 hrs by [35S]GTP-gamma-S binding assay; assay type: functional, cell membranes; conditions: Membrane
Method in brief: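 Mouse spleen lysed in a cell disruption bomb, centrifuged at 1000 g then 175000 g, and resuspended in TME with 0.1% BSA. Membranes (24–40 µg) incubated 2 h at 30 °C with test compound at 1 µM, 30 µM GDP and 0.05 nM [35S]GTPγS. Nonspecific binding defined with 10 µM unlabeled GTPγS. Bound label measured after GF/B filtration by scintillation counting. Reported with standard deviations.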

[2] = molecular target: Cannabinoid receptor 2 (Mus musculus) (UniProt P47936); assay: Agonist activity at CB2 receptor in mouse spleen membranes assessed as inhibition of forskolin-stimulated cAMP production; assay type: functional, cell membranes; conditions: Membrane
[3] = Selectivity of mouse CB2 receptor over rat CB1 receptor
Method in brief: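 Ratio of Ki values from [3H]CP55,940 displacement using rat brain synaptosomal membranes (CB1) and mouse spleen membranes (CB2). Both incubated 1 h at 30 °C in TME with 0.1% BSA. IC50 from three independent experiments converted to Ki by Cheng–Prusoff.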

For `CCCCCCC(C)(C)c1cc(O)c2c(c1)oc(=O)c1ccc(C)cc12`, the Activity [1] was 56%, the Activity [2] was “Active” and the Ratio Ki [3] was 13.

Calls of active or inactive are those of the source. No cut-off for these calls is given here.
